System: lipase
Test: Lipase/lipolysis assay (EnzChek Lipase Substrate, quenched BODIPY-fatty acid conjugate) on stored human milk
[1] = compound added to fresh human milk, stored 1 week at −20° C., thawed at room temperature, RFU <400 considered a hit
[2] = Food-Sourced Compound Library compound added to fresh human milk, stored 1 week at −20° C., thawed at room temperature, RFU <400 considered a hit
[3] = Food Additive Library compound added to fresh human milk, stored 1 week at −20° C., thawed at room temperature, RFU of <400 considered a hit
[4] = Biolog PM4 compound added to fresh human milk, stored 1 week at −20° C., RFU <400 = hit
[5] = Biolog PM1 compound added to fresh human milk, stored 1 week at −20° C., RFU <400 = hit
[6] = Biolog PM5 compound added to fresh human milk, stored 1 week at −20° C., RFU <400 = hit

Row | Structure (SMILES) | Lipase (RFU) [1] [RFU] | Lipase (RFU) [3] [RFU] | also measured
1 | NCC(O)c1ccccc1 (stereo not drawn) [Compound 2-Amino-1-phenylethanol, 2-Amino-1-phenylethanol] | 1076.654 |  | 
2 | CCCCCCCCCCCCCC[C@@H](O)[C@@H](O)[C@@H](N)CO [Phytosphingosine] | 986.6872 |  | 
3 | Cc1cn([C@@H]2O[C@H](CO)[C@@H](O)[C@H]2O)c(=O)nc1N [Compound 5-Methylcytidine, 5-Methylcytidine] |  |  | Lipase (RFU) [2]: 1079.212 RFU
4 | CC(=O)N[C@@H](CC(N)=O)C(=O)O | 1045.166 |  | 
5 | C=C1CCC[C@]2(C)CC[C@@H](C(C)(C)O)C[C@@H]12 [Beta-Eudesmol] | 776.3619 |  | 
6 | C[C@H](CCC(=O)NCCS(=O)(=O)O)[C@H]1CC[C@H]2[C@@H]3CC[C@@H]4C[C@H](O)CC[C@]4(C)[C@H]3C[C@H](O)[C@]12C [Taurodeoxycholic acid (sodium hydrate)] | 1000.218 |  | 
7 | O=C(OC[C@H]1O[C@@H](OC(=O)c2cc(O)c(O)c(OC(=O)c3cc(O)c(O)c(O)c3)c2)[C@H](OC(=O)c2cc(O)c(O)c(OC(=O)c3cc(O)c(O)c(O)c3)c2)[C@@H](OC(=O)c2cc(O)c(O)c(OC(=O)c3cc(O)c(O)c(O)c3)c2)[C@@H]1OC(=O)c1cc(O)c(O)c(OC(=O)c2cc(O)c(O)c(O)c2)c1)c1cc(O)c(O)c(OC(=O)c2cc(O)c(O)c(O)c2)c1 [Tannic acid] | 1076.036 | 1033.049 | 
8 | NC(=O)c1ccccc1 [Benzamide] | 1097.474 |  | 
9 | c1cc2c(cc1[C@H]1OC[C@H]3[C@@H]1CO[C@@H]3c1ccc3c(c1)OCO3)OCO2 [Sesamin] | 1111.465 |  | 
10 | Nc1ncnc2c1ncn2C1OC(COP(=O)(O)OP(=O)(O)OCC2OC(O)C(O)C2O)C(O)C1O (stereo not drawn) [Adenosine 5′-diphosphoribose (sodium)] |  |  | Lipase (RFU) [2]: 1112.658 RFU
11 | O=C(O)c1cc(=O)c2ccccc2[nH]1 [Kynurenic acid] |  |  | Lipase (RFU) [2]: 718.2388 RFU
12 | Cc1cn([C@H]2C[C@H](O)[C@@H](CO)O2)c(=O)nc1N [5-Methyl-2′-deoxycytidine] |  |  | Lipase (RFU) [2]: 961.9903 RFU
13 | O=c1cc(-c2ccc(O)c(O)c2)oc2cc(O)cc(O)c12 [Luteolin] |  |  | Lipase (RFU) (Table 7, single compound 20 mg/mL, human milk stored 1 week at −20° C., inhibited if RFU <400): 292.778 RFU
14 | NC(=O)Cc1c[nH]c2ccccc12 [Indole-3-acetamide] | 788.953 |  | 
15 | OC[C@H]1NCC[C@@H](O)[C@@H]1O [Fagomine] | 1239.347 |  | 
16 | CC(=O)OCc1ccccc1 [Benzyl acetate] | 947.1435 |  | 
17 | C=CC(=C)CCC=C(C)C [Myrcene] | 870.9314 | 1129.48 | 
18 | CC(C)=CCC[C@]1(C)C=Cc2c(O)c3c(c(CC=C(C)C)c2O1)O[C@]12C(=C[C@@H]4C[C@H]1C(C)(C)O[C@@]2(C/C=C(/C)C(=O)O)C4=O)C3=O [Gambogic Acid] |  |  | Lipase (RFU) [2]: 1063.766 RFU
19 | O=P(O)(O)CP(=O)(O)O [Methylene Diphosphonic Acid] |  |  | Lipase (RFU) [4]: 1100.448 RFU
20 | CCCCCCC(O)C(=O)O (stereo not drawn) [2-Hydroxyoctanoic acid] | 1089.353 |  | 
21 | CC1=CCC(C(C)C)=CC1 [γ-Terpinene] |  | 918.7096 | 

Row | Structure (SMILES) | Lipase (RFU) [1] [RFU] | Lipase (RFU) [3] [RFU] | also measured
22 | N[C@H]1C(O)O[C@H](COP(=O)(O)O)[C@@H](O)[C@@H]1O (stereo partly drawn) [D-Glucosamine-6-Phosphate] |  |  | Lipase (RFU) [4]: 757.8961 RFU
23 | CCOc1ccc2c(c1)C(C)=CC(C)(C)N2 [Ethoxyquin] |  | 1095.72 | 
24 | O=c1ccoc2cc(O)cc(O)c12 [5,7-Dihydroxychromone] |  |  | Lipase (RFU) [2]: 1093.907 RFU
25 | CC(O)(P(=O)(O)O)P(=O)(O)O [Etidronic acid] |  | 958.9943 | 
26 | CCCCCCCCCCCCC(=O)O [Tridecanoic acid] |  | 833.6958 | Lipase (RFU) [2]: 946.5476 RFU
27 | COc1cc(CCC(C)=O)ccc1O [Zingerone] |  | 802.7858 | 
28 | C[C@H]1[C@H](C)CC[C@]2(C)CC[C@]3(C)C(=CC(=O)[C@@H]4[C@@]5(C)CC[C@@H](O)[C@](C)(C(=O)O)[C@@H]5CC[C@]43C)[C@H]12 [11-Keto-beta-boswellic acid] |  |  | Lipase (RFU) [2]: 826.4636 RFU
29 | CC(=O)C(=O)[O-].[Na+] [Sodium 2-oxopropanoate] |  | 683.8023 | 
30 | CCCCCc1ccco1 [Compound 2-Pentylfuran, 2-Pentylfuran] |  | 858.2494 | 
31 | Nc1ccn([C@@H]2O[C@H](COP(=O)(O)OP(=O)(O)OP(=O)(O)O)[C@@H](O)[C@H]2O)c(=O)n1 [Cytidine-5′-triphosphate] | 509.7291 |  | 
32 | C=CC(C)(O)CCC=C(C)CCC=C(C)C (mixture of isomers) [Nerolidol] | 977.6047 | 1068.015 | 
33 | CCCCCCCCCCCCO [Compound 1-Dodecanol, 1-Dodecanol] |  | 944.8837 | 
34 | C=CCc1ccc(O)c(OC)c1 [Eugenol] |  | 927.4764 | 
35 | CC(=O)CC(=O)O [Acetoacetic Acid] |  |  | Lipase (RFU) [5]: 1111.177 RFU
36 | COc1ccc(C(=O)O)cc1 [p-Anisic acid] |  |  | Lipase (RFU) [2]: 1003.08 RFU
37 | O=C1NS(=O)(=O)c2ccccc21 [Saccharin] |  | 1019.642 | 
38 | CC(C)=CCC[C@@H](C)[C@H]1CC[C@H]2[C@@H]3CC=C4C[C@@H](O)CC[C@]4(C)[C@H]3CC[C@]12C [Desmosterol] | 1192.638 |  | 
39 | CC(C)C(=O)C(=O)[O-].[Na+] [Sodium 3-methyl-2-oxobutanoate] |  |  | Lipase (RFU) [2]: 1025.486 RFU
40 | Nc1ncnc2c1ncn2[C@@H]1O[C@H](COP(=O)(O)OP(=O)(O)O)[C@@H](O)[C@H]1O [Adenosine 5′-diphosphate] | 861.1249 |  | 
41 | C=CCSC[C@H](N)C(=O)O [S-Allyl-L-cysteine] |  | 780.4627 | Lipase (RFU) [2]: 686.1385 RFU
42 | O=C(O)[C@@H](O)Cc1ccccc1 [(S)-2-Hydroxy-3-phenylpropanoic acid] |  |  | Lipase (RFU) [2]: 1131.39 RFU

Row | Structure (SMILES) | Lipase (RFU) [1] [RFU] | Lipase (RFU) [3] [RFU] | also measured
43 | CCCCCCCCC(=O)O [Nonanoic acid] |  | 1267.202 | 
44 | Nc1ncnc2c1ncn2[C@H]1C[C@H](O)[C@@H](CO)O1 [2′-Deoxy Adenosine] |  |  | Lipase (RFU) [5]: 947.0571 RFU; Lipase (RFU) [6]: 374.7843 RFU; Hit in lipase inhibition screen (in words) (approximately 2700 compound screen, human milk stored 1 week at −20° C., hit = RFU <400): significantly inhibited lipase activity
45 | O=CC(=O)O [Glyoxylic Acid] |  |  | Lipase (RFU) [5]: 994.5383 RFU
46 | NCCCCNCCCN [Spermidine] |  |  | Lipase (RFU) [6]: 994.6739 RFU
47 | CN1CC(=O)NC1=O [N-Methylhydantoin] |  |  | Lipase (RFU) [2]: 973.8439 RFU
48 | OC[C@H]1O[C@H](OC[C@H]2O[C@H](OC[C@H]3OC(O)[C@H](O)[C@@H](O)[C@@H]3O)[C@H](O)[C@@H](O)[C@@H]2O)[C@H](O)[C@@H](O)[C@@H]1O (stereo partly drawn) [Isomaltotriose] |  |  | Lipase (RFU) [2]: 897.0005 RFU
49 | Oc1cccc2ccccc12 [Compound 1-Naphthol, 1-Naphthol] | 738.6152 |  | 
50 | CC(C)=CCO [Compound 3-Methyl-2-buten-1-ol, 3-Methyl-2-buten-1-ol] |  | 1025.112 | 
51 | O=C(O)CC(O)(CC(=O)O)C(=O)O [Citric Acid] | 762.2073 | 1240.795 | Lipase (RFU) [5]: 603.536 RFU
52 | COc1cc(C=O)ccc1O [Vanillin] | 832.4473 | 958.5749 | 
53 | Cc1ccc(-c2ccccc2)cc1 [Compound 4-Methylbiphenyl, 4-Methylbiphenyl] | 986.6554 |  | 
54 | C[C@H](O)[C@@H](N)C(=O)O [D-Threonine] |  |  | Lipase (RFU) [5]: 1111.617 RFU
55 | C[C@@H]1O[C@@H](O[C@H]2[C@H](Oc3cc(O)c4c(=O)cc(-c5ccc(O)cc5)oc4c3)O[C@H](CO)[C@@H](O)[C@@H]2O)[C@H](O)[C@H](O)[C@H]1O [Rhoifolin] |  |  | Lipase (RFU) [2]: 1023.714 RFU
56 | CC(=O)N[C@H]1C(O)O[C@H](CO)[C@@H](O[C@@H]2O[C@H](CO)[C@H](O)[C@H](O)[C@H]2O)[C@@H]1O (stereo partly drawn) [N-Acetyllactosamine] | 846.7809 |  | 
57 | N[C@H]1C(O)O[C@H](CO)[C@@H](O)[C@@H]1O (stereo partly drawn) [D-Glucosamine] |  |  | Lipase (RFU) (Biolog PM2a compound added to fresh human milk, stored 1 week at −20° C., RFU <400 = hit): 688.2356 RFU
58 | CCC(C)CC(=O)O (stereo not drawn) [3-Methylvaleric Acid] |  | 862.3239 | 
59 | NC(N)=NCCS(=O)(=O)O [Guanidinoethyl sulfonate] | 955.0282 |  | 
60 | CC(=O)N[C@@H](CS)C(=O)O [N-Acetyl-L-Cysteine] |  |  | Lipase (RFU) [4]: 1073.744 RFU
61 | Cn1cnc2c(ncn2[C@@H]2O[C@H](CO)[C@@H](O)[C@H]2O)c1=O [Compound 1-Methylinosine, 1-Methylinosine] | 1112.685 |  | 
62 | O=C(OCc1ccccc1)c1ccccc1 [Benzyl benzoate] |  | 984.2536 | 

Source: US12507703B2, “Methods, devices and compositions for preserving human milk” (The Trustees of Princeton University, priority 2023, dated 2025)
